According to PubChem BioAssay AID640 (Columbia University Molecular Screening Center, 2007):
Only a part is listed here, and it is no random draw. Some results for these compounds are left out of this collection, so the calls shown say nothing about other tests. Calls of active or inactive are those of the source.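 Rule for the calls: active = inhibition at 2 µM at or above a set limit, the screen mean plus 3 SD (cut at about 24% in these data); inactive = the rest.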

By UniProt entry, the sequences of proteins in these tests, tags left out.
UniProt Q9Y2R2, whole entry: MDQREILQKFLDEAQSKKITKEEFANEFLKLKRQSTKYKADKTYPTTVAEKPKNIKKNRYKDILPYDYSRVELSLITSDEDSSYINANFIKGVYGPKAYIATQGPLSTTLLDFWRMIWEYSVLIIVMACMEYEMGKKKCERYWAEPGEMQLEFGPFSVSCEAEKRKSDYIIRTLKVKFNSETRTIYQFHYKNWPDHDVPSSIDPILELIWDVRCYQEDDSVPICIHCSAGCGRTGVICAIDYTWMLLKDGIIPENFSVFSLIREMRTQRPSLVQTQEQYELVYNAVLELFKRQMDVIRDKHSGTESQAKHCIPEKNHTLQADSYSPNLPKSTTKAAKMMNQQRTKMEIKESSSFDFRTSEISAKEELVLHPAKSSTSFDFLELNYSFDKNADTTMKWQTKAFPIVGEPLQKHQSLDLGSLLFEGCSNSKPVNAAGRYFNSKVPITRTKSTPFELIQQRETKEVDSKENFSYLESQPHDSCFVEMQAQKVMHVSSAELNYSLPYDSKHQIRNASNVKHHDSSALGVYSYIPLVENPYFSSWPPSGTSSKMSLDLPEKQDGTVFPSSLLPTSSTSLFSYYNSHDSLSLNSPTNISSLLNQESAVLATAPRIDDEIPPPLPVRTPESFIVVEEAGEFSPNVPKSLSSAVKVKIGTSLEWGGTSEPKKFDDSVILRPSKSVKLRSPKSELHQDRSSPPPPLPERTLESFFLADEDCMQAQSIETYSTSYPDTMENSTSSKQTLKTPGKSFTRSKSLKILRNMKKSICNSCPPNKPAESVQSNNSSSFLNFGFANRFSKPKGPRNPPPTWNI

What follows are compounds tested against Tyrosine-protein phosphatase non-receptor type 22 (Homo sapiens) (UniProt Q9Y2R2) (assay: PTPN22 phosphatase inhibitors, primary screen, biochemical, DiFMUP fluorescence, 2 µM (AID 640;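 note: 0% = DMSO with enzyme and 100% = enzyme fully blocked by orthovanadate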)). Settings: recombinant LYP catalytic domain, at 2 µM, hits give high values.
For `CN(C)c1cccc(C(=O)NCC2(N(C)C)CCCCC2)c1`, the inhibition was inactive: 0.6%. For `O=C(OC1CN2CCC1CC2)C(CO)(c1ccccc1)c1ccccc1` (stereo not drawn), the inhibition was inactive: 4.8%. For `CC(C)N1C(=O)CC2(CCN(CCOC(=O)C(O)(c3ccccc3)c3ccccc3)CC2)C1=O`, the inhibition was inactive: 5.7%.
